From ChEMBL document CHEMBL1132457, “Pyrazolo[4,3-e]-1,2,4-triazolo[1,5-c]pyrimidine derivatives as highly potent and selective human A(3) adenosine receptor antagonists” (J Med Chem, 1999) come the findings set out here.

Sequences of proteins named here, by UniProt entry; tags and fusion partners are left off.
UniProt P0DMS8, whole entry: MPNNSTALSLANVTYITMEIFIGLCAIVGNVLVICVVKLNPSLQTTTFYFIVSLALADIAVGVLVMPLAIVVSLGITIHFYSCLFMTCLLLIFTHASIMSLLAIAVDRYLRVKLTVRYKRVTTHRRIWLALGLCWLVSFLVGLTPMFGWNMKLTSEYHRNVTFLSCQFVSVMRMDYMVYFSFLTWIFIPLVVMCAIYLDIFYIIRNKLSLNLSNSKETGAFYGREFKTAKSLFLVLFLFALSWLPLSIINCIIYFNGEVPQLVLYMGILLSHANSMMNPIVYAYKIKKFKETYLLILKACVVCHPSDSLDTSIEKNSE

The target in the experiment is Adenosine receptor A3 (Homo sapiens, UniProt P0DMS8). The experiment in a line: Inhibitory concentration as antagonistic activity against cAMP generation inhibited by IB-MECA in CHO cell membranes transfected with human Adenosine A3 receptor. The class given is functional, cell-based.

pIC50: −log10 of the molar value.

As usually defined, the pIC50 is −log10 of the IC50, conventionally taken in molar units. Low values mean a high IC50, high ones a low IC50. In the case of `CCCn1cc2c(nc(NC(=O)Nc3ccc(OC)cc3)n3nc(-c4ccco4)nc23)n1`, the pIC50 was 8.35.
